Values of other authors in patent US10456439B2, “NK3 agonist for use in the treatment of a patient suffering from atrial arrhythmia or fibrillation” (priority 2014, dated 2019).

Protein sequences, listed by entry. Tags and fused reporters are not part of them.
UniProt P21452, whole entry, species assumed: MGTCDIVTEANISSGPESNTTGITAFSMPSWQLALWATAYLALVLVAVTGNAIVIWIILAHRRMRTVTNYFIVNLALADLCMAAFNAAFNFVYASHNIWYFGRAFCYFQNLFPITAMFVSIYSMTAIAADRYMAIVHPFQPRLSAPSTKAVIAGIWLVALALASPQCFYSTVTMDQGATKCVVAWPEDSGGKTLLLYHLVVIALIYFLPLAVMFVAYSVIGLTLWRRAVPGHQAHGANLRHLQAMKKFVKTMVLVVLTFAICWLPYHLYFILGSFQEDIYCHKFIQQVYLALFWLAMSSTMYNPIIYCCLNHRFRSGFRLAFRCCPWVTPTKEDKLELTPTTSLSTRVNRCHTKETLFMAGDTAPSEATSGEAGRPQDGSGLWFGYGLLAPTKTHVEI

Assays:
NK2-receptor [1] = target: T1, NK2-receptor (Homo sapiens, UniProt P21452); details: cited from earlier work
NK2-receptor [2] = target: T1, NK2-receptor; details: cited from earlier work; remark: listed apart in the source

Neurokinin A: compound having CAS registry No. 86933-74-6
NK2-receptor Affinity (pK1) (NK2-receptor [1]): 8.0-9.1 pK1 | NK2-receptor Affinity (pEC50) (NK2-receptor [2]): 8.89 pEC50
